From paper PMC12643529 (ACS Infectious Diseases, 2025)

Experiments:
[1] = tested on: promastigote form of L. major; experiment: MTT-based antileishmanial assay, promastigotes; assay type: cell-based, Leishmania major; details: SI = IC50 MRC-5/IC50 L. major promastigotes
Method: The antileishmanial activity of the compounds against the promastigote form of L. major, the […] was determined using an MTT-based assay (Sigma-Aldrich). Stock solutions of the compounds were prepared in DMSO with the final DMSO percentage in each well maintained below 1%. 4 × 10^6 parasites per mL were incubated at 28 °C in 96-well plates (50 μL/well) either alone or in the presence of increasing concentrations of compounds DMSO for 72 h. After the incubation period, 10 μL of MTT (5 mg/mL) was added to each well, and the parasites were incubated for 4 h at 28 °C. Subsequently, cell lysis was performed using 50 μL/well of 20% SDS. […] Data were presented as the average of at least three independent measurements, each conducted under triplicate conditions. […] “single marker” […] S7

[2] = tested on: bloodstream form of T. brucei; experiment: alamarBlue (resazurin) antitrypanosomal assay; assay type: cell-based, Trypanosoma brucei; details: SI = IC50 MRC-5/IC50 T. brucei (resazurin assay)
BSF T. brucei parasites = experiment: CellTiter-Glo luminescent cell viability assay; assay type: cell-based, Trypanosoma brucei; details: SI = IC50 MRC-5/IC50 T. brucei

Cc1ccc2c(c1)sc(-c1ccc(N(C)C)cc1)[n+]2C [ThT, Thioflavin T]
selectivity index (SI) L. major [1]: 7.9
selectivity index (SI) T. brucei [2]: 38.9
selectivity index (SI) T. brucei (CellTiter-Glo) (BSF T. brucei parasites): 2.95
